Measured values taken from ChEMBL document CHEMBL1145967, “Design, synthesis, and biological activities of classical N-[4-[2-(2-amino-4-ethylpyrrolo[2,3-d]pyrimidin-5-yl)ethyl]benzoyl]-l-glutamic acid and its 6-methyl derivative as potential dual inhibitors of thymidylate synthase and dihydrofolate reductase and as potential antitumor agents” (J Med Chem, 2003).

Chains of the proteins cited; added tags and fusions are not shown.
UniProt C3SWJ7, whole entry: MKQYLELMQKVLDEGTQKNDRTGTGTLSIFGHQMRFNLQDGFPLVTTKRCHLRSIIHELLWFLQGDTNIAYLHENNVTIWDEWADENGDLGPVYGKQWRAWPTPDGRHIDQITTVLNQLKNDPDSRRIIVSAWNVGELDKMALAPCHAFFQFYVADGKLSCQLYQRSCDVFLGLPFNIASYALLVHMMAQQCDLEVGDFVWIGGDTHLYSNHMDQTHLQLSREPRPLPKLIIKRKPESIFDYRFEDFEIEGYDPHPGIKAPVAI

Molecular target: Thymidylate synthase (Escherichia coli, UniProt C3SWJ7)
Assay: Compound was evaluated as inhibitor of Escherichia coli thymidylate synthase

**Q.** CCc1[nH]c(N)nc2nc(C)c(CCc3ccc(C(=O)N[C@@H](CCC(=O)O)C(=O)O)cc3)c1-2 was tested. Which IC50 did it give?
**A.** Its IC50 is 18 µM.
